We go through 5 molecules from ChEMBL document CHEMBL4184094, “Spiro-1-benzofuranpiperidinylalkanoic acids as a novel and selective sphingosine S1P5 receptor agonist chemotype” (Bioorg Med Chem Lett, 2018).

The species entered for test [1] is Homo sapiens. In words: Selectivity ratio of EC50 for human S1P5 receptor expressed in CHO cells to EC50 for human S1P3 receptor expressed in CHO cells. Type of test: cell-based.
Test [2] is filed under the species Homo sapiens. In words: Selectivity ratio of EC50 for human S1P5 receptor expressed in CHO cells to EC50 for human S1P1 receptor expressed in CHO cells. Type of test: cell-based.

For `O=C(O)CCN1CCC2(CC1)COc1cc(OCc3c(Cl)cccc3OC(F)(F)F)ccc12`, the Ratio EC50 in the test filed under Homo sapiens [1] amounted to 100.

Take `Cc1cc(Cl)c(COc2ccc3c(c2)OCC32CCN(CCC(=O)O)CC2)c(Cl)c1`: the Ratio EC50 in the test listed under Homo sapiens [1] is 1000.

With `Cl.O=C(O)CCN1CCC2(CC1)COc1cc(C#Cc3ccccc3)ccc12`, the Ratio EC50 in the test filed under Homo sapiens [1] was determined as 100; in the test filed under Homo sapiens [2] it was 1000.

`Cl.O=C(O)CCN1CCC2(CC1)COc1cc(/C=C/c3c(Cl)cccc3Cl)ccc12`: the values for the Ratio EC50 in the test filed under Homo sapiens [1] and in the test listed under Homo sapiens [2] were 100 and 1000, respectively.

In the case of `CC(CN1CCC2(CC1)COc1cc(OCc3c(Cl)cccc3Cl)ccc12)C(=O)O` (configuration not stated), in the test filed under Homo sapiens [1], the Ratio EC50 came out at 100.
